ChEMBL document CHEMBL5150013, “The Repertoire of Small-Molecule PET Probes for Neuroinflammation Imaging: Challenges and Opportunities beyond TSPO” (J Med Chem, 2021)

The chains behind the UniProt entries cited, without tags or fusion partners.
UniProt P21453, whole entry: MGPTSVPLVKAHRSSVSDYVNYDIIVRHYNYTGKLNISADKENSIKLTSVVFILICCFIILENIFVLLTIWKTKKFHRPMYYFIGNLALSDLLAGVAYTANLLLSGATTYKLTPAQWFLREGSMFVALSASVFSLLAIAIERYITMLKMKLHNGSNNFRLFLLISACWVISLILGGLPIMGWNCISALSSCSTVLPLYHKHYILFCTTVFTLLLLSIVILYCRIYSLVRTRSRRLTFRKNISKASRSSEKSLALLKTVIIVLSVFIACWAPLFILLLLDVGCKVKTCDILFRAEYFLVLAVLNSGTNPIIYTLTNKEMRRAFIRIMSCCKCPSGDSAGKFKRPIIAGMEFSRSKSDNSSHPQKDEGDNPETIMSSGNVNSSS

Biological target: Sphingosine 1-phosphate receptor 1 (Homo sapiens, UniProt P21453)

IC50: 6.7 nM
SMILES: OCc1ccc(-c2noc(-c3ccc(OCC[18F])c(C(F)(F)F)c3)n2)cc1
